This note sets out measurements from PMC8279520.

This experiment deals with glyceraldehyde-3-phosphate dehydrogenase (GAPDH) isolated from rabbit muscle (rabbit) (UniProt P46406).

Substance Aβ16 (peptide) registered a death of SH-SY5Y cells (CytoTox-96) with Aβ peptide (6 μM) and GAPDH (30 μg/mL) of 19.5%; a death of SH-SY5Y cells (CytoTox-96) with Aβ peptide (6 μM), GAPDH (30 μg/mL) and tTG (5 μg/mL) of 31.5%.
